## Ab-95 light chain CDR variants: yeast mating affinities

Values reported by Engelhart et al. 2022, doi:10.1038/s41597-022-01779-4 (FLAb copy).

Target: peptide PDVDLGDISGINAS, taken from heptad repeat 2 (HR2) of SARS-CoV-2 spike.

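Library AAYL52 holds single substitutions and randomly drawn double and triple substitutions in the CDRs. In AlphaSeq, yeast of one mating type display the scFv and yeast of the other type display the target. After mating in shaken culture at 30 °C for 16 h, diploids were selected and their barcode pairs sequenced. Scores were corrected for input abundance and mapped to Kd with protein pairs of known affinity run in the same pool. The assay was run in three technical replicates.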

The variants keep the heavy chain, the linker and the frameworks of Ab-95 (scFv order VH, the linker GGGGSGGGGSGGGGS, VL).
VH: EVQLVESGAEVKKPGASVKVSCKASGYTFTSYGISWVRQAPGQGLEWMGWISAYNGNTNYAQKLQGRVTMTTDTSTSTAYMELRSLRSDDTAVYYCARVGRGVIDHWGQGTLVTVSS
VL: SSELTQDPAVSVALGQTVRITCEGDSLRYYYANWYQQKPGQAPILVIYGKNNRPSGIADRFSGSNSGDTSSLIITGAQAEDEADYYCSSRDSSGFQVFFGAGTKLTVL

The parent's light chain CDRs are EGDSLRYYYAN, GKNNRPS, SSRDSSGFQVF; each variant's own CDRs replace them letter for letter.
Values are log10 of the apparent Kd in nM; lower means stronger binding.
Averages over replicates are reported, and they cover detected replicates only.
An entry "no signal" has no value in the source: the pair was not observed among the diploids in any replicate. This suggests poor binding but is not conclusive.
Nonspecific signal, from three strains lacking the peptide, appeared in 28% of pairings of library AAYL52, centred on 3.91 (5% of these signals below 2.90); values are not corrected for it. Also given: how often the same scFv was detected with the empty control strains.

| CDR-L1 | CDR-L2 | CDR-L3 | mean, log10 nM | seen in | signal with controls |
|---|---|---|---|---|---|
| EGDSLRYYYAK | GKNMRPS | SSRDSSNFQVF | 3.98 | 3 of 3 | 3 of 9 |
| EGDSLRYYYAN | GKNERPS | SSRDSSGFSVF | 2.12 | 3 of 3 | 2 of 9 |
| EGDSLGYYYAL | GKNNRPS | SSRSSSGFQVF | no signal | 0 of 3 | 0 of 9 |
| SGDSLRYYYAN | GKENRPS | SSRDSSGIQVF | 3.54 | 2 of 3 | 0 of 9 |
| EGDSERYYYAN | GKNNRLS | SDRDSSGFQVF | 3.84 | 1 of 3 | 2 of 9 |
| EGDSLRYYYAN | GKNCRPS | SSRDSSGFSVF | 3.58 | 3 of 3 | 3 of 9 |
| EGGSLRYYYAN | GKNNVPS | SSRDSSGYQVF | 3.46 | 3 of 3 | 2 of 9 |
| EGDSLRYYYAN | GKNNRPS | SFRDSSGMFVF | 4.01 | 1 of 3 | 1 of 9 |
| EGDSLMYYYAN | GKGNRPR | SSRDSSGFQVF | 3.45 | 3 of 3 | 2 of 9 |
| DGDSLRYYYAN | GDNNRPS | SSRDSSYFQVF | 2.47 | 3 of 3 | 2 of 9 |
| EGYSLRYYYAN | GKNNRPS | SSRPSSGFQVE | 2.56 | 3 of 3 | 0 of 9 |
| EGDSLRYYYAW | GKNNRMS | SPRDSSGFQVF | no signal | 0 of 3 | 0 of 9 |
| EHDSLRYYYAI | GKNNRPS | SSRDSSGFQVF | 4.83 | 1 of 3 | 1 of 9 |
| EGDSLRYYYAS | GKNNPPS | SSKDSSGFQVF | no signal | 0 of 3 | 1 of 9 |
| EGDSLRYYYAN | HKNNRPS | SSRDSSLFAVF | 3.89 | 3 of 3 | 4 of 9 |
| EGQSLRYYYAN | GKNNRLS | SSRDSSGFQVF | 2.58 | 3 of 3 | 2 of 9 |
| PGDSIYYYYAN | GKNNRPS | SSRDSSGFQVF | 4.09 | 1 of 3 | 2 of 9 |
| RGDSLRYYYAN | GKKNRPS | SSRDSSGFQVR | 4.42 | 1 of 3 | 1 of 9 |
| EGDSLRYYYAN | GKNNRPS | SVRESYGFQVF | 2.52 | 3 of 3 | 0 of 9 |
| EGRSLRYYYAN | GKNNRPS | LSRDSSCFQVF | 3.60 | 3 of 3 | 1 of 9 |
| EGDSLRVYYAN | GKNNRPH | ISRDSSGFQVF | 3.49 | 2 of 3 | 3 of 9 |
| EGSSLRYYYAN | GKNGRPS | CSRDSSGFQVF | 3.06 | 3 of 3 | 2 of 9 |
| EGDSLRYYDNN | GKNNRPS | SSRDSSGFCVF | 3.79 | 3 of 3 | 2 of 9 |
| EGDSLRYYYAN | GFNNRPS | SARDSSGFQVF | 3.18 | 3 of 3 | 5 of 9 |

Further variants, results first:

| mean, log10 nM | seen in | signal with controls | CDR-L1 | CDR-L2 | CDR-L3 |
|---|---|---|---|---|---|
| 4.79 | 1 of 3 | 2 of 9 | EYDSLRYYYVN | GKNGRPS | SSRDSSGFQVF |
| 3.37 | 3 of 3 | 3 of 9 | IGDSLRQYYAN | GKNNRPS | QSRDSSGFQVF |
| no signal | 0 of 3 | 2 of 9 | EGDILRYYYAN | GKNNRPS | SSRDSSFHQVF |
| 1.10 | 3 of 3 | 3 of 9 | EGPSLRYPYSN | GKNNRPS | SSRDSSGFQVF |
| 2.97 | 3 of 3 | 1 of 9 | IGDSLRYYYAN | GKNNRPG | SSRDYSGFQVF |
| 2.92 | 1 of 3 | 2 of 9 | EGDSLRYYYAN | GKNNRKS | SSRKSRGFQVF |
| 3.29 | 2 of 3 | 5 of 9 | EGDSLVYYYAN | GKNNRPS | SSRYSTGFQVF |
| 0.59 | 3 of 3 | 3 of 9 | EGDSLRYNYAN | GKNNRPA | SSRKSSGFQVF |
| 3.19 | 3 of 3 | 0 of 9 | RGDSWRYYCAN | GKNNRPS | SSRDSSGFQVF |
| 2.37 | 3 of 3 | 2 of 9 | EGDSLMYYHAN | GKNNRPS | SSRDSSGFTVF |
| no signal | 0 of 3 | 0 of 9 | EGDSLGYYYAN | GKNNSPS | SSRDSSGFQVL |
| no signal | 0 of 3 | 0 of 9 | EGDVLRYYYAN | GKNNRPK | SSRDSSGFQHF |
| 3.51 | 3 of 3 | 3 of 9 | ESASLRYYYAN | GKNNRPS | SSRDCSGFQVF |
| 1.46 | 3 of 3 | 3 of 9 | EGDSLRYYDAN | GKNNRPS | SSRDPSGFWVF |
| no signal | 0 of 3 | 1 of 9 | EGDSLRYYYAN | GKNNFDS | SERDSSGFQVF |
| 3.59 | 3 of 3 | 5 of 9 | EGDVLRYYQAN | GKNNRPS | SSRDSSGFQPF |
| 4.13 | 1 of 3 | 1 of 9 | CGDSLRYFYAI | GKNNRPS | SSRDSSGFQVF |
| 2.52 | 3 of 3 | 4 of 9 | WGDSRRYYYAN | GKNNRPS | SSRDSSGFQVF |
| 5.05 | 2 of 3 | 2 of 9 | EGDSLRYYYAN | GKNNRPY | SSCDSSGFVVF |
| 3.54 | 2 of 3 | 1 of 9 | EGDSLRVYYAN | GENNRPS | SSVDSSGFQVF |
| 4.32 | 1 of 3 | 4 of 9 | DGDSLRYYYNN | GPNNRPS | SSRDSSGFQVF |
| 3.38 | 1 of 3 | 3 of 9 | EGDSLRYYYAW | GKNNNPS | SSRDSSGFQVQ |
| 2.37 | 3 of 3 | 5 of 9 | EGDSLRYYYAN | GKNNRPS | KSRDSSFRQVF |
| 3.53 | 1 of 3 | 5 of 9 | EGDSLRYYYAR | GKNNRPS | TSRDSSGFHVF |

The first 5 entries again:

| CDR-L1 | CDR-L2 | CDR-L3 | mean, log10 nM | seen in | signal with controls |
|---|---|---|---|---|---|
| EGDSLRYYYAK | GKNMRPS | SSRDSSNFQVF | 3.98 | 3 of 3 | 3 of 9 |
| EGDSLRYYYAN | GKNERPS | SSRDSSGFSVF | 2.12 | 3 of 3 | 2 of 9 |
| EGDSLGYYYAL | GKNNRPS | SSRSSSGFQVF | no signal | 0 of 3 | 0 of 9 |
| SGDSLRYYYAN | GKENRPS | SSRDSSGIQVF | 3.54 | 2 of 3 | 0 of 9 |
| EGDSERYYYAN | GKNNRLS | SDRDSSGFQVF | 3.84 | 1 of 3 | 2 of 9 |